Measurements taken from article PMC8463279 (Acta Pharmaceutica Sinica. B, 2021).

Molecular target: T1, Pfbc1 (Plasmodium falciparum, UniProt Q02768)
T1 sequence (Q02768 1-376): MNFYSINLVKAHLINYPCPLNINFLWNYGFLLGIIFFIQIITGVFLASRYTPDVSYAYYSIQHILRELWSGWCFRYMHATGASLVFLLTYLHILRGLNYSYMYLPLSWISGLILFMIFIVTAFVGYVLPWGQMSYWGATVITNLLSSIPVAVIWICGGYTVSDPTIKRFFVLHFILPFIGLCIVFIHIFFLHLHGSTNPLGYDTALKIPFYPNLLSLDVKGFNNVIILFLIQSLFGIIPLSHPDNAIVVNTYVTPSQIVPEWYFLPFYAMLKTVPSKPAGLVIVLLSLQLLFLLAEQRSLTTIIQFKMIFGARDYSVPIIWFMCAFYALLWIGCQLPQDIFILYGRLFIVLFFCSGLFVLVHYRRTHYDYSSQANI
Test: Decylubiquinol-cytochrome c reductase activity of Pfbc1
Format: biochemical, P. falciparum

IC50: 0.87 nM
Structure (SMILES): O=C1C(O)=C([C@H]2CC[C@H](c3ccc(Cl)cc3)CC2)C(=O)c2ccccc21 [Atovaquone, atovaquone, reference compound]
